Reference: patent US20230157952A1, “METHOD FOR IMPROVING THE STABILITY OF A PHARMACEUTICAL COMPOSITION COMPRISING A HIGH PENETRATION DRUG, AND THE PHARMACEUTICAL COMPOSITION OBTAINED THEREFROM” (Techfields Inc., priority 2020, published 2023)

Key:
[1] = Effect of solvent on the stability of the solution (purity at various pH values and temperature); assay type: physicochemical; settings: 7% solution
Description: The results are illustrated in the following.

[2] = Effect of concentration on the stability of the solution (purity over time); settings: at 5° C. in 15% ethanol
[3] = Stability of the pure HPDs (dry solid) at 25° C./RH 60%; assay type: physicochemical; settings: pure HPD
[4] = Effect of pH value on the stability of the solution (purity); assay type: physicochemical; settings: 25° C.

SMILES: CCN(CC)CCOC(=O)c1ccccc1OC(C)=O.Cl
- Purity(%) at day 14 (5° C.) ([1]; solvent 15% ethanol, pH 3.0, day 14, 5° C.): 98.3 ± 0.3%
- Purity(%) at day 14 (5° C.) ([1]; solvent 15% ethanol, pH 3.7, day 14, 5° C.): 98.9 ± 0.2%
- Purity(%) at day 14 (5° C.) ([1]; solvent 15% ethanol, pH 4.0, day 14, 5° C.): 98.9 ± 0.1%
- Purity(%) at day 14 (5° C.) ([1]; solvent 15% ethanol, pH 4.3, day 14, 5° C.): 98.9 ± 0.1%
- Purity(%) at day 14 (5° C.) ([1]; solvent 15% ethanol, pH 4.6, day 14, 5° C.): 98.6 ± 0.2%
- Purity(%) at day 14 (5° C.) ([1]; solvent 25% ethanol, pH 3.0, day 14, 5° C.): 98.5 ± 0.2%
- Purity(%) at day 14 (5° C.) ([1]; solvent 25% ethanol, pH 4.6, day 14, 5° C.): 98.8 ± 0.1%
- Purity(%) at day 14 (5° C.) ([1]; solvent 25% ethanol, pH 5.0, day 14, 5° C.): 98.0 ± 0.2%
- Purity(%) at day 14 (5° C.) ([1]; solvent 50% ethanol, pH 3.0, day 14, 5° C.): 98.6 ± 0.3%
- Purity(%) at day 14 (5° C.) ([1]; solvent 50% ethanol, pH 4.6, day 14, 5° C.): 99.0 ± 0.3%
- Purity(%) at day 14 (5° C.) ([1]; solvent 50% ethanol, pH 5.0, day 14, 5° C.): 98.2 ± 0.3%
- Purity(%) at day 14 (5° C.) ([1]; solvent water, pH 3.0, day 14, 5° C.): 98.1 ± 0.1%
- Purity(%) at day 14 (5° C.) ([1]; solvent water, pH 3.7, day 14, 5° C.): 98.7 ± 0.1%
- Purity(%) at day 14 (5° C.) ([1]; solvent water, pH 4.0, day 14, 5° C.): 98.8 ± 0.1%
- Purity(%) at day 14 (5° C.) ([1]; solvent water, pH 4.3, day 14, 5° C.): 98.9 ± 0.1%
- Purity(%) at day 14 (5° C.) ([1]; solvent water, pH 4.6, day 14, 5° C.): 98.5 ± 0.2%
- Purity(%) at day 0 ([1]; solvent water, pH 8.0, day 0): 99.0 ± 0.3%

SMILES: CCN(CC)CCOC(=O)c1ccccc1OC(C)=O.Cl [2-(diethylamino)ethyl acetylsalicylate•HCl]
- Purity at day 3 ([2]; 3 wt %): 98.6%
- Purity at day 7 ([2]; 3 wt %): 97.7%
- Purity at day 14 ([2]; 5 wt %): 98.9%
- Purity at day 21 ([2]; 5 wt %): 98.5%
- Purity at day 28 ([2]; 5 wt %): 98.0%
- Purity at day 21 ([2]; 7 wt %): 98.9%
- Purity at day 28 ([2]; 7 wt %): 98.7%
- Purity at day 60 ([2]; 7 wt %): 98.0%
- Purity at day 21 ([2]; 8 wt %): 98.8%
- Purity at day 28 ([2]; 8 wt %): 98.6%
- Purity at day 60 ([2]; 8 wt %): 98.0%
- Purity at day 21 ([2]; 10 wt %): 98.7%
- Purity at day 28 ([2]; 10 wt %): 98.7%
- Purity at day 60 ([2]; 10 wt %): 98.3%
- Purity at day 21 ([2]; 15 wt %): 98.9%
- Purity at day 28 ([2]; 15 wt %): 98.7%
- Purity at day 60 ([2]; 15 wt %): 98.1%
- Purity at day 21 ([2]; 20 wt %): 99.0%
- Purity at day 28 ([2]; 20 wt %): 98.8%
- Purity at day 60 ([2]; 20 wt %): 98.1%
- Purity at day 21 ([2]; 30 wt %): 99.0%
- Purity at day 28 ([2]; 30 wt %): 98.9%
- Purity at day 60 ([2]; 30 wt %): 98.2%
- Purity at day 28 ([2]; 50 wt %): 99.0%
- Purity at day 60 ([2]; 50 wt %): 98.2%

SMILES: CCCCC(=O)O.CCN(CC)CCOC(=O)c1ccccc1OC(C)=O [A-4, 2-(diethylamino)ethyl acetylsalicylate•valeric acid]
- Purity ([3]; 3 month): 98.5 ± 0.1
- Purity(%) from day 0-14 ([4]; day 0, pH 1.0, 7% in water): 97.8 ± 0.2%
- Purity(%) from day 0-14 ([4]; day 0, pH 2.0, 7% in water): 98.1 ± 0.2%
- Purity(%) from day 0-14 ([4]; day 0, pH 3.0, 7% in water): 98.3 ± 04%
- Purity(%) from day 0-14 ([4]; day 0, pH 3.7, 7% in water): 98.4 ± 0.1%
- Purity(%) from day 0-14 ([4]; day 0, pH 4.0, 7% in water): 98.4 ± 0.2%
- Purity(%) from day 0-14 ([4]; day 0, pH 4.3, 7% in water): 98.5 ± 0.1%
- Purity(%) from day 0-14 ([4]; day 0, pH 4.6, 7% in water): 98.4 ± 0.3%
- Purity(%) from day 0-14 ([4]; day 0, pH 5.0, 7% in water): 98.3 ± 0.2%
- Purity(%) from day 0-14 ([4]; day 0, pH 6.0, 7% in water): 98.2 ± 0.2%
- Purity(%) from day 0-14 ([4]; day 0, pH 7.0, 7% in water): 98.0 ± 0.3%
- Purity(%) from day 0-14 ([4]; day 0, pH 8.0, 7% in water): 97.9 ± 0.2%

SMILES: CC(O)C(=O)O.CCN(CC)CCOC(=O)c1ccccc1OC(C)=O [A-3, 2-(diethylamino)ethyl acetylsalicylate•lactic acid salt]
- Purity ([3]; 3 month): 98.4 ± 0.2
- Purity ([3]; 6 month): 98.2 ± 0.2
- Purity ([3]; Day 0): 98.3 ± 0.1
- Purity(%) from day 0-14 ([4]; day 0, pH 1.0, 7% in water): 97.8 ± 0.3%
- Purity(%) from day 0-14 ([4]; day 0, pH 2.0, 7% in water): 98.0 ± 0.2%
- Purity(%) from day 0-14 ([4]; day 0, pH 3.0, 7% in water): 98.2 ± 0.1%
- Purity(%) from day 0-14 ([4]; day 0, pH 3.7, 7% in water): 98.2 ± 0.2%
- Purity(%) from day 0-14 ([4]; day 0, pH 4.0, 7% in water): 98.3 ± 0.1%
- Purity(%) from day 0-14 ([4]; day 0, pH 4.3, 7% in water): 98.2 ± 0.1%
- Purity(%) from day 0-14 ([4]; day 0, pH 4.6, 7% in water): 98.2 ± 0.3%
- Purity(%) from day 0-14 ([4]; day 0, pH 5.0, 7% in water): 98.2 ± 0.2%
- Purity(%) from day 0-14 ([4]; day 0, pH 6.0, 7% in water): 98.0 ± 0.1%
- Purity(%) from day 0-14 ([4]; day 0, pH 7.0, 7% in water): 98.0 ± 0.2%
- Purity(%) from day 0-14 ([4]; day 0, pH 8.0, 7% in water): 97.8 ± 0.2%

SMILES: CCN(CC)CCOC(=O)c1ccccc1OC(C)=O.O=C(O)/C=C\C(=O)O [A-1, 2-(diethylamino)ethyl acetylsalicylate•maleic acid salt]
- Purity(%) from day 0-14 ([4]; day 0, pH 1.0, 7% in water): 98.1 ± 0.3%
- Purity(%) from day 0-14 ([4]; day 0, pH 2.0, 7% in water): 98.2 ± 0.3%
- Purity(%) from day 0-14 ([4]; day 0, pH 3.0, 7% in water): 98.4 ± 0.1%
- Purity(%) from day 0-14 ([4]; day 0, pH 3.7, 7% in water): 98.5 ± 0.1%
- Purity(%) from day 0-14 ([4]; day 0, pH 4.0, 7% in water): 98.6 ± 0.1%
- Purity(%) from day 0-14 ([4]; day 0, pH 4.3, 7% in water): 98.5 ± 0.2%
- Purity(%) from day 0-14 ([4]; day 0, pH 4.6, 7% in water): 98.5 ± 0.3%
- Purity(%) from day 0-14 ([4]; day 0, pH 5.0, 7% in water): 98.4 ± 0.1%
- Purity(%) from day 0-14 ([4]; day 0, pH 6.0, 7% in water): 98.3 ± 0.2%
- Purity(%) from day 0-14 ([4]; day 0, pH 7.0, 7% in water): 98.2 ± 0.2%
- Purity(%) from day 0-14 ([4]; day 0, pH 8.0, 7% in water): 98.0 ± 0.3%

SMILES: CCN(CC)CCOC(=O)c1ccccc1OC(C)=O.O=C(O)c1ccccc1 [A-2, 2-(diethylamino)ethyl acetylsalicylate•benzoic acid salt]
- Purity ([3]; 3 month): 98.4 ± 0.1
- Purity ([3]; 6 month): 98.2 ± 0.2
- Purity ([3]; Day 0): 98.5 ± 0.2
- Purity(%) from day 0-14 ([4]; day 0, pH 1.0, 7% in water): 98.2 ± 0.2%
- Purity(%) from day 0-14 ([4]; day 0, pH 2.0, 7% in water): 98.4 ± 0.2%
- Purity(%) from day 0-14 ([4]; day 0, pH 3.0, 7% in water): 98.5 ± 0.1%
- Purity(%) from day 0-14 ([4]; day 0, pH 3.7, 7% in water): 98.6 ± 0.1%
- Purity(%) from day 0-14 ([4]; day 0, pH 4.0, 7% in water): 98.6 ± 0.2%
- Purity(%) from day 0-14 ([4]; day 0, pH 4.3, 7% in water): 98.7 ± 0.2%
- Purity(%) from day 0-14 ([4]; day 0, pH 4.6, 7% in water): 98.6 ± 0.3%
- Purity(%) from day 0-14 ([4]; day 0, pH 5.0, 7% in water): 98.5 ± 0.2%
- Purity(%) from day 0-14 ([4]; day 0, pH 6.0, 7% in water): 98.4 ± 0.3%
- Purity(%) from day 0-14 ([4]; day 0, pH 7.0, 7% in water): 98.2 ± 0.2%
- Purity(%) from day 0-14 ([4]; day 0, pH 8.0, 7% in water): 98.0 ± 0.3%
